Measured values reported in ChEMBL document CHEMBL1133635, “Caspases as targets for anti-inflammatory and anti-apoptotic drug discovery” (J Med Chem, 2000).

Tests used:
Caspase-1 (Homo sapiens) [1] = target: T1, Caspase-1 (Homo sapiens) (UniProt P29466)
T1 sequence (whole entry): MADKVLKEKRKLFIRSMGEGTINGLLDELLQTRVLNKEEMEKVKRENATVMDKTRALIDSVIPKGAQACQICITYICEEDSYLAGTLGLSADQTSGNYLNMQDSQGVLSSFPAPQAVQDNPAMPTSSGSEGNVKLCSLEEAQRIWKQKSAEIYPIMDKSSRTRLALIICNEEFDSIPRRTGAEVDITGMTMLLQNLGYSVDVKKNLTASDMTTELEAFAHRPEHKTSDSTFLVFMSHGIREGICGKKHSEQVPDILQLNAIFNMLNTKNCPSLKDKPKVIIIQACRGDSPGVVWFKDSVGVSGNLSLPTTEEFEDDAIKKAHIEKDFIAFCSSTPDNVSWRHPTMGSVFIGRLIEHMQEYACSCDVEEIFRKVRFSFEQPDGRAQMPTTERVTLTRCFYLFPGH

Caspase-1 (Homo sapiens) [2] = target: T1, Caspase-1 (Homo sapiens); remark: listed apart in the source
Caspase-1 (Homo sapiens) [3] = target: T1, Caspase-1 (Homo sapiens); remark: listed apart in the source

Row | SMILES | k on (Caspase-1 (Homo sapiens) [1]) [M⁻¹ s⁻¹] | k on (Caspase-1 (Homo sapiens) [2]) [M⁻¹ s⁻¹] | also measured
1 | CC(C)[C@H](NC(=O)OCc1ccccc1)C(=O)N[C@@H](C)C(=O)NC(CC(=O)O)C(=O)COC1=C(Cc2ccccc2)C(=O)OC1 (some centres not stated) | 252000 |  | 
2 | CC(C)[C@H](NC(=O)OCc1ccccc1)C(=O)N[C@@H](C)C(=O)N[C@@H](CC(=O)O)C(=O)COP(=O)(c1ccccc1)c1ccccc1 | 117000 |  | 
3 | CC(C)[C@H](NC(=O)OCc1ccccc1)C(=O)N1CCCCC1C(=O)N[C@@H](CC(=O)O)C(=O)COc1cc(C(F)(F)F)nn1-c1ccccc1 (some centres not stated) |  | 271000 | 
4 | CC(C)[C@H](NC(=O)OCc1ccccc1)C(=O)N[C@@H](C)C(=O)NC(CC(=O)O)C(=O)COc1cc(C(F)(F)F)nn1-c1ccccc1 (some centres not stated) |  | 280000 | 
5 | CC(C)[C@H](NC(=O)OCc1ccccc1)C(=O)N[C@@H](C)C(=O)N[C@@H](CC(=O)O)C(=O)COC(=O)c1c(Cl)cccc1Cl |  | 407000 | 
6 | CC(C)[C@H](NC(=O)OCc1ccccc1)C(=O)N[C@@H](C)C(=O)NC(CC(=O)O)C(=O)COC(=O)CCc1ccccc1 (some centres not stated) |  |  | k on (Caspase-1 (Homo sapiens) [3]): 1.6e+06 M⁻¹ s⁻¹
7 | CC(C)[C@H](NC(=O)OCc1ccccc1)C(=O)N[C@@H](C)C(=O)NC(CC(=O)O)C(=O)COc1ccc2ccc(=O)oc2c1 (some centres not stated) | 160000 |  | 
